The numbers were not newly measured in patent publication US20240156723A1, “DEPOT COMPOSITIONS FOR VESICULAR MONOAMINE TRANSPORTER 2 (VMAT2) INHBITORS” (Foresee Pharmaceuticals Co., Ltd., priority 2022, published 2024), which cites them from elsewhere.

Amino acid sequences for entries named in this document (tags omitted).
UniProt Q05940, whole entry: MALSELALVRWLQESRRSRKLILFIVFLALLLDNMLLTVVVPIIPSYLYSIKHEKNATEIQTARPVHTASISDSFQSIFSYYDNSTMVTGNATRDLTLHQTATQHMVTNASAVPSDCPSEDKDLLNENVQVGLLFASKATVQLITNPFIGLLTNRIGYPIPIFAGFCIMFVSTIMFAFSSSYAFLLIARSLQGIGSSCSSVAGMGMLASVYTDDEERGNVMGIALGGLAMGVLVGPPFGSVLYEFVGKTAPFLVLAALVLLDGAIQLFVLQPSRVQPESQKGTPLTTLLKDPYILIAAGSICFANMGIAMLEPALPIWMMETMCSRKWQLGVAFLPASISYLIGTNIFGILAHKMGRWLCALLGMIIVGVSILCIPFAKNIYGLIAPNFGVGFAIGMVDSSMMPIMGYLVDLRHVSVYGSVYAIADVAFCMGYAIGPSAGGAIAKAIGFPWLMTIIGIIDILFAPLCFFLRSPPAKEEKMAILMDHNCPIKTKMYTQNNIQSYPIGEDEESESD

A word on the Ki: it is a measure of affinity in units of concentration, obtained from inhibition or displacement.

This series addresses human VMAT2 (Homo sapiens, UniProt Q05940). The following applies: read-out: human VMAT2 binding affinity Ki; cited from earlier work.

For “[−]-β-dihydrotetrabenazine [(−)-(β)-DHTBZ]”, the inhibitory constant (Ki) was around 690 nM.
